The record followed here is ChEMBL document CHEMBL1143418, “Colistin methanesulfonate against multidrug-resistant Acinetobacter baumannii in an in vitro pharmacodynamic model” (2007).

For this assay, the system named is Acinetobacter baumannii. Nature of the assay: Antibacterial activity against multidrug-resistant Acinetobacter baumannii 06-74 isolate by CLSI microdilution test. Format: functional. A general note: In broth dilution the organism is exposed to a series of concentrations in liquid medium.

With COLISTIN SULFATE, the MIC (as a rule, the smallest concentration in the dilution series that meets the test's criterion for growth inhibition) was 0.5 µg/mL.
